# Data reported in publication PMC3765993, “The duration of sleep promoting efficacy by dual orexin receptor antagonists is dependent upon receptor occupancy threshold” (BMC Neuroscience, 2013).
# Test system: OX2R
# Type: in vivo, dog
# Details: dogs; calculated from rat occupancy values normalized for unbound plasma values
compound,measurement,value
"Cc1ccc(-n2nccn2)c(C(=O)N2CCN(c3nc4cc(Cl)ccc4o3)CC[C@H]2C)c1 [Suvorexant, [(7R)-4-(5-chloro-1,3-benzoxazol-2-yl)-7-methyl-1,4-diazepan-1-yl][5-methyl-2-(2H-1,2,3-triazol-2-yl)phenyl]methanone]",OX2R occupancy corresponding to plasma exposure of 0.342 μM,65.7%
